# Biological target: Nociceptin receptor (Mus musculus) (UniProt P35377)
# Chains of the proteins cited; added tags and fusions are not shown. Lines headed by an entry give the natural chain unless they say otherwise; changes in a name come on top.
# UniProt P35377: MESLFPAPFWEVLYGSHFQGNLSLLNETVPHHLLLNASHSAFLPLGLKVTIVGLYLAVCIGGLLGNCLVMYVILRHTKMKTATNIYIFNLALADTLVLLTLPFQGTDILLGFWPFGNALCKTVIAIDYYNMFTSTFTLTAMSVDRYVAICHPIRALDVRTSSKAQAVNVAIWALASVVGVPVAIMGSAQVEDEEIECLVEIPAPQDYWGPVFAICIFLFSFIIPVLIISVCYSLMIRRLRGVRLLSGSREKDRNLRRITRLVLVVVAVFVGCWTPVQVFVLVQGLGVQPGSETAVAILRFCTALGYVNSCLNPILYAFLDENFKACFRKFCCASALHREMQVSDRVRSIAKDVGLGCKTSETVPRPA
# Assay: Agonist activity at NOP receptor in Swiss mouse vas deferens assessed as effect on electrically stimulated contractions
# Assay type: functional, tissue-based
smiles,measurement,value
CC(C)C[C@H](NC(=O)[C@H](CCCCN)NC(=O)[C@H](CCCNC(=N)N)NC(=O)[C@H](C)NC(=O)[C@H](CO)NC(=O)[C@H](CCCCN)NC(=O)[C@H](CCCNC(=N)N)NC(=O)[C@H](C)NC(=O)CNC(=O)[C@@H](NC(=O)[C@H](Cc1ccccc1)NC(=O)CNC(=O)CNC(=O)[C@@H](N)Cc1ccccc1)[C@@H](C)O)C(=O)N[C@@H](C)C(=O)N[C@@H](CC(N)=O)C(=O)N[C@@H](CCC(N)=O)C(N)=O,Emax,93%

# From ChEMBL document CHEMBL1148695, “Synthesis and biological activity of nociceptin/orphanin FQ analogues substituted in position 7 or 11 with Calpha,alpha-dialkylated amino acids” (Bioorg Med Chem, 2007)
